Only a part is listed here, and it is no random draw. Some tests of the compounds listed are not included; inactive here does not mean inactive elsewhere. Active and inactive are the calls of the source. The call rests on the fitted dose curve; in most records, active means well fitted activation curve with a large enough effect; inconclusive means small, poorly fitted or top-dose-only effect; inactive means no such curve, though single readings can be large or run the other way.
Assay: qHTS Assay for Small Molecule Inhibitors of Mitochondrial Division or Activators of Mitochondrial Fusion; further: % of control where 0% means no effect; nearly all actives have a fitted effect of over 45% in size
Conditions: S. cerevisiae fusion-defective mutant growth rescue, CellTiterGlo 48 h; at 46.1 µM (top of the series)
Excerpt: NIH Chemical Genomics Center [NCGC] NIH Molecular Libraries Probe Production centers Network [MLPCN] MLPCN Grant: MH081279-01 Assay Submitter (PI): Jodi M. Nunnari NCGC Assay Overview: The budding yeast S. cerevisiae is a powerful system to study mitochondrial fusion. Unlike other organisms, yeast cells without functional mitochondrial DNA (mtDNA) can be propagated and studied as long as they maintain a mitochondrial compartment and are provided with a fermentable carbon source. When mitochondrial fusion is blocked in yeast, mitochondrial tubules rapidly fragment and division continues unopposed. Under conditions where fusion is compromised in mammalian cells, nearly identical changes in mitochondrial structure have been observed. Thus, these findings indicate that steady state mitochondrial structure in cells is a characteristic and specific indicator of fusion activity. Mounting evidence has pointed to a connection between mitochondrial dynamics and apoptosis in mammalian cells. These studies indicate that in mammalian cells mitochondrial dynamics are more integrated into cellular processes than in yeast cells and have evolved not only to distribute the organelle but also to aid in the regulation of cellular homeostasis. Mitochondrial fusion proteins attenuate apoptosis by inhibiting the release of cytochrome c from mitochondria, in part by controlling cristae structures. Thus, small molecules that inhibit mitochondrial […] may promote apoptosis and potentially act as novel chemotherapeutics and stimulation of apoptosis has become an attractive target of anti-cancer therapies. To identify inhibitors of mitochondrial division, we exploit the growth phenotypes of mitochondrial fusion-defective mutants. The temperature sensitive fusion alleles, such as fzo1-1 and mgm1-5, cause mitochondrial membranes to fragment in cells under non-permissive conditions and cells lose mtDNA, and are unable to grow in the presence of non-fermentable carbon source glycerol. Inhibiting mitochondrial division rescues growth. We have developed and optimized a luminescence cell viability assay in 1536 well format for the identification of inhibitors in the yeast mitochondrial fusion-defective assay.
The yeast glycerol stocks where kindly supplied by the laboratory of Dr. Jodi Nunnari, University of California, Davis. All yeast glycerol stock solutions were stored in single use aliquots at -80C. The CellTiterGlo luminescence reagent, containing luciferase and luciferin, were purchased from Promega, and the reagents were stored according to manufacturer's instructions. The Buffer components for the YPEG yeast growth medium were purchased from Sigma-Aldrich (St. Louis, MO). YPEG growth medium: 1% (w/v) yeast extract, 2% (w/v) Bacto-peptone, 3% Ethanol, 3% glycerol, 0.4mM Tryptophan, 0.36mM Adenine. qHTS Assay Protocol: 1.#Dispense 2.5 ul yeast growth medium per 1536 well plate. 2.#Transfer 23 nl per well of compound to plate. 3.#Dispense 2.5 ul yeast solution at appropriate seeding density per well. 4.#Incubate for 48 hours at 37C. 5.#Dispense 5 ul of CellTiterGlow solution per well. 6.#Incubate at ambient for 10 minutes. 7.#Read using bio-luminescence protocol on Viewlux.

SMILES | growth rescue (activation)
O=C(OC1CN2CCC1CC2)C(CO)(c1ccccc1)c1ccccc1 (stereo not drawn) | inactive: -4.68%
CN(C)c1cccc(C(=O)NCC2(N(C)C)CCCCC2)c1 | inactive: -2.26%
COc1ccc(Br)c(C(=O)NCC2(N3CCCCC3)CCCCC2)c1 | inactive: -3.09%
COc1cc(C(=O)NCC2(N(C)C)CCCCC2)c([N+](=O)[O-])cc1OC | inactive: -11.8%
CN(C)C1(CNC(=O)c2ccc(Br)cc2)CCCCC1 | inactive: 7.7%
O=C(NCC1(N2CCCCC2)CCCCC1)c1cccc(Cl)c1 | inactive: -7.63%
COc1ccc(Cl)cc1C(=O)NCC1(N(C)C)CCCCC1 | inactive: 0.457%
COc1cccc(C(=O)NCC2(N3CCCCC3)CCCCC2)c1 | inactive: -6.43%
CN(C)c1ccc(C(=O)NCC2(N(C)C)CCCCC2)cc1 | inactive: 3.7%
CN(C)C1CCCC1OC(=O)C(O)(c1ccccc1)c1ccccc1 (stereo not drawn) | inactive: -1.04%
Cc1ccccc1C(=O)NCC1(N2CCCCC2)CCCCC1 | inactive: -1.46%
O=C(NCC1(N2CCCCC2)CCCCC1)c1cccc(Br)c1 | inactive: -4.23%
CCN1CCCC(OC(=O)C2(O)c3ccccc3C=Cc3ccccc32)C1 (stereo not drawn) | inactive: -9.22%
Cc1cc(C(=O)NCC2(N3CCCCC3)CCCCC2)ccc1[N+](=O)[O-] | inactive: -0.333%
COc1ccc(C(=O)NCC2(N(C)C)CCCCC2)cc1 | inactive: 19.2%
O=C(NCC1(N2CCCCC2)CCCCC1)c1cc(F)c(F)cc1Cl | inactive: -5.82%
C=CCN1CCN(CCOC(=O)C(O)(c2ccccc2)c2ccccc2)CC1 | inactive: -1.08%
CN1[C@@H]2CC[C@H]1CC(OC(=O)C(O)(c1ccccc1)c1ccccc1)C2 (stereo partly drawn) | inactive: 1.73%
O=C(NCC1(N2CCCCC2)CCCCC1)c1cc([N+](=O)[O-])ccc1Cl | inactive: 1.97%
Cc1ccc(C(=O)NCC2(N3CCCCC3)CCCCC2)cc1 | inactive: 6.81%
CC(C)N1C(=O)CC2(CCN(CCOC(=O)C(O)(c3ccccc3)c3ccccc3)CC2)C1=O | inactive: -6.63%
COc1cc(SC)ccc1C(=O)NCC1(N(C)C)CCCCC1 | inactive: 2.7%
CCN(CC)CC(C)C(C)OC(=O)C(O)(c1ccccc1)c1ccccc1 (stereo not drawn) | inactive: 2.63%

From PubChem BioAssay AID485298 (National Center for Advancing Translational Sciences (NCATS), 2010)
